# Data reported in patent US5731343A (dated 1998).
# How the values were obtained:
# [1] = test system: 5-lipoxygenase (5-LO); conditions: 5-HETE from exogenous arachidonic acid (30 μM); same doses as COX recovery
# [2] = test system: COX-1; conditions: LPS; radicicol 50 and 200 ng/ml; 16 hours; listed as radicicol
# [3] = test system: COX-1 mRNA; conditions: LPS-treated rat alveolar macrophages
# [4] = test system: COX-1; conditions: radicicol 1000 ng/ml
# [5] = test system: IL-1; conditions: for expression of IL-1 protein: LPS (10 μg/ml)
# [6] = test system: TNF-α; conditions: LPS-stimulated macrophages; FIGS. 14 and 15
# [7] = test system: mRNA for proinflammatory agents (IFNγ, MCP-1, MIP-2, KC, PTPase, GM-CSF, TF, IL-6, IL-1α); conditions: LPS stimulated macrophages; FIG. 16
# [8] = test system: IL-1β mRNA; conditions: LPS; FIG. 17E
# [9] = test system: MIP2 mRNA; conditions: LPS; FIG. 17D
# [10] = test system: KC mRNA; conditions: LPS; FIG. 17F
# [11] = test system: GM-CSF mRNA; conditions: LPS; FIG. 17I
# [12] = test system: IL-6 mRNA; conditions: LPS; FIG. 17J
# [13] = test system: TF mRNA; conditions: LPS; FIG. 17H
# [14] = test system: PTPase mRNA; conditions: LPS; FIG. 17K
# [15] = test system: COX-1 mRNA; conditions: n=3; 10 μg/100 g body weight per minute, renal artery, 60 minutes; vs vehicle
# [16] = test system: PGE2; conditions: for PGE2 levels in kidney / PGE2 levels in glomeruli: 10 μg/100 g body weight/minute, renal artery, 60 minutes, mean ± SEM of 3
# [17] = test system: p60^v-src; conditions: Kwon et al. 1992; cited from earlier work
# [18] = test system: tyrosine phosphorylated proteins (Src family tyrosine kinases); test: Antiphosphotyrosine immunoblotting of LPS-stimulated macrophages; conditions: 4 hours pretreatment; LPS (10 μg/ml); rat alveolar macrophages
# [19] = test system: p53/56^lyn; conditions: 4 hours pretreatment; LPS (10 μg/ml)
# [20] = test system: p388D1 macrophage-like cells; conditions: LPS-primed p388D1; Glaser et al. 1990; cited from earlier work
# [21] = rats with experimental GN, result in words
smiles,measurement,setting,value
"C[C@@H]1C[C@H]2O[C@@H]2/C=C\C=C\C(=O)Cc2c(Cl)c(O)cc(O)c2C(=O)O1 [Radicicol, 5-chloro-6-(7,8-epoxy-10-hydroxy-2-oxo-3,5-undecadienyl)-β-resorcyclic acid μ-lactone]",effect on 5-lipoxygenase activity,[1],did not significantly affect
same,expression of COX-1 protein,[2],not affected
same,steady state levels of mRNA for COX-1,[3],did not appear to affect
same,effect on enzyme activity of purified COX-1,[4],not affected
same,expression of IL-1,"[5]; LPS-stimulated macrophages, FIGS. 14 and 15",effectively inhibited
same,expression of IL-1 protein,[5]; radicicol 50 ng/ml,effectively reduces IL-1 expression
same,expression of IL-1 protein,[5]; radicicol 200 ng/ml,almost completely abolishes IL-1 protein
same,expression of TNF-α,[6],effectively inhibited
same,mRNA for many proinflammatory agents,[7],reduced
same,stability of mRNA for IL-1β,[8],affects stability of mRNA
same,stability of mRNA for MIP2,[9],affects stability of mRNA
same,stability of mRNA for KC,[10],affects stability of mRNA
same,stability of mRNA for GM-CSF,[11],affects stability of mRNA
same,stability of mRNA for IL-6,[12],affects stability of mRNA
same,rate of degradation for TF mRNA,[13],not significantly affected
same,rate of degradation for PTPase mRNA,[14],not significantly affected
same,levels of COX-1 mRNA in glomeruli,[15],not COX-1 mRNA
same,PGE2 levels in kidney,"[16]; 4 hours, vehicle 1110 ± 29",1114 ± 140 ng/mg protein
same,PGE2 levels in glomeruli,"[16]; 4 hours, vehicle 3722 ± 536, p ≤0.05",2486 ± 150 ng/mg protein
same,PGE2 levels in kidney,"[16]; 24 hours, vehicle 1185 ± 68",1097 ± 109 ng/mg protein
same,PGE2 levels in glomeruli,"[16]; 24 hours, vehicle 2506 ± 32, p ≤0.001",1170 ± 19 ng/mg protein
same,levels of PGE2 in glomeruli,[16]; [21],reduction of PGE2 levels
same,levels of PGE2 in the whole kidney,[16]; [21],not affected
same,ability to block p60^v-src kinase activity in presence of dithiothreitol,[17],abolished
same,levels of tyrosine phosphorylated proteins,[18],suppression of levels of tyrosine phosphorylated proteins in time dependent and dose dependent fashions
same,levels of p53/56^lyn,[19],significant reduction levels of p53/56^lyn; also recorded: inhibited tyrosine phosphorylation and levels of p53/56^lyn in a time dependent and dose dependent fashion
O=c1c(-c2ccc(O)cc2)coc2cc(O)cc(O)c12 [genistein],platelet-activating factor-stimulated PGE2 production,[20],inhibit

# Entries after “also recorded” stand apart in the source; their conditions may differ. Like-named read-outs stand apart in the source and are kept apart here.
